IC50 data for four compounds are collected here from patent US9321756B2, “Azole compounds as PIM inhibitors” (priority 2011, dated 2016).

The target of assay [1] is full length recombinant Pim-3 (Homo sapiens (Human), UniProt Q86V86). The assay is described as follows: Pim enzyme assay (HTRF, phosphorylation of biotinylated-BAD (S112) peptide), Pim-3. The format is biochemical. The conditions noted are these: read-out: Pim3 IC50.
Assay [2] relates to Pim-2 stably transfected U2OS human osteogenic sarcoma line. The assay is described as follows: Pim cell assay U2OS (phospho-BAD normalized against total BAD), Pim-2 transfected. The format is cell-based. The conditions noted are these: read-out: U2OS Pim2_Cell_IC50.

pIC50: −log10 of the molar value. Like-named read-outs stand apart in the source and are kept apart here.

In the case of `Nc1nnc(-c2ccc3[nH]cc(-c4cccc(N5CCCC5)n4)c3c2)s1` [Example 14, 5-(3-(6-(pyrrolidin-1-yl)pyridin-2-yl)-1H-indol-5-yl)-1,3,4-thiadiazol-2-amine], the pIC50 in assay [1] was 8.05; in assay [2], 4.92.

For the compound `Nc1nnc(-c2ccc3[nH]cc(-c4cncc(NC5CC5)n4)c3c2)s1` [Example 15, 5-(3-(6-(cyclopropylamino)pyrazin-2-yl)-1H-indol-5-yl)-1,3,4-thiadiazol-2-amine], the pIC50 was 8.47 in assay [1] and 5.69 in assay [2].

As to `CN1CCN(c2cccc(-c3c[nH]c4ccc(-c5nnc(N)s5)cc34)n2)CC1=O` [Example 30, 4-(6-(5-(5-amino-1,3,4-thiadiazol-2-yl)-1H-indol-3-yl)pyridin-2-yl)-1-methylpiperazin-2-one], the pIC50 in assay [2] is 5.30.

As for `Nc1nnc(-c2ccc3[nH]cc(-c4cccc(N5CCCC5)n4)c3c2)s1` [Example 176, 5-(3-(6-(1-pyrrolidinyl)-2-pyridinyl)-1H-indol-5-yl)-1,3,4-thiadiazol-2-amine], the pIC50 in assay [1] (Pim-3 enzyme assay) was 7.84.
